One assay addresses T1, 5-HT2 receptors (Rattus norvegicus, UniProt P14842).
T1 construct: 5-HT2 receptors in membranes from rat; from tissue; host or cells: rat cortex membranes
The experiment in a line: Inhibition of 3H-Ketanserin binding to 5-HT2 receptors in membranes from rat cortex in vitro. The settings on record: 0,5 nM 3H-ketanserin. Here is the method: Inhibition of ^3 H-Ketanserin Binding To 5-HT2 Receptors in […] Cortex in vitro
By this method the inhibition by drugs of the binding of ^3 H-Ketanserin (0,5 nM) to 5-HT2 receptors in membranes from rat is determined in vitro. The method is described in Hyttel, Pharmacology & Toxicology 61, 126-129, 1987.

Chains of the proteins cited; added tags and fusions are not shown.
UniProt P14842, whole entry: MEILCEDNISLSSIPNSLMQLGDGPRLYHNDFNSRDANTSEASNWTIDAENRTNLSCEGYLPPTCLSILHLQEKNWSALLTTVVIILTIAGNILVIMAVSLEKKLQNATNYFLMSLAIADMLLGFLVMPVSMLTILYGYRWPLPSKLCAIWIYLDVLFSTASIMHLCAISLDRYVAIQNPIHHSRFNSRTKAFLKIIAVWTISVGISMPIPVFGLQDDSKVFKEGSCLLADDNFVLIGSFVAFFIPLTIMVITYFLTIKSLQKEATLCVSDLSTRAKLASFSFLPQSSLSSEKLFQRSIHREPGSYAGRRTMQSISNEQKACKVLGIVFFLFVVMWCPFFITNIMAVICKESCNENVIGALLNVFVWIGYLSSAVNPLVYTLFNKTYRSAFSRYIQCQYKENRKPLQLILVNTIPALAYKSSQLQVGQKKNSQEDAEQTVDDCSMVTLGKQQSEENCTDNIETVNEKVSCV
UniProt P61169, whole entry: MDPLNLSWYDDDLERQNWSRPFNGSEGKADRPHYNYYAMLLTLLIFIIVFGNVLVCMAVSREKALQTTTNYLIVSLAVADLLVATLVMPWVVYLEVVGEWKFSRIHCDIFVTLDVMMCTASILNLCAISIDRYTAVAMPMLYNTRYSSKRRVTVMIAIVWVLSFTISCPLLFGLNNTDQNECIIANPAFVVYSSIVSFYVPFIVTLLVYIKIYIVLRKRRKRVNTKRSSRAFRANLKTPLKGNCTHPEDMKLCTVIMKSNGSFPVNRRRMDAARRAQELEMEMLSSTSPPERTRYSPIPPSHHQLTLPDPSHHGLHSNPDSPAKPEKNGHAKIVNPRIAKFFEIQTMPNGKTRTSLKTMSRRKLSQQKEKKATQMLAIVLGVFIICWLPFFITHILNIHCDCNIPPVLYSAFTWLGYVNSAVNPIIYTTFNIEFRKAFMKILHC

Another assay concerns the target T2, dopamine D2 receptors (Rattus norvegicus, UniProt P61169).
T2 construct: dopamine D2 receptors in membranes from rat corpus striatum; from tissue; host or cells: rat corpus striatum membranes
In words: Inhibition of 3H-Spiperone binding to dopamine D2 receptors in rat corpus striatum in vitro. Particulars: 0.5 nM 3H-spiperone, rat corpus striatum membranes, read-out: Dopamine D2 binding [^3 H]-spiroperidol. Here is the method: Inhibition of ^3 H-Spiperone Binding to Dopamine D2 Receptors in Rat Corpus Striatum in vitro
By this method the inhibition by drugs of the binding of ^3 H-spiperone (0.5 nM) to dopamine D2 receptors in membranes from rat corpus striatum is determined in vitro. The method and results for standard compounds are described in Hyttel & Larsen, J. Neurochem, 44, 1615-1622, 1985).

As to `[2H]C1([2H])NC(=O)N(CCN2CCC(c3cn(-c4ccc(F)cc4)c4ccc(Cl)cc34)CC2)C1([2H])[2H]` [Compound 4, 1-[2-[4-[5-Chloro-1-(4-fluorophenyl)-1H-indol-3-yl]piperidin-1-yl]ethyl]-4,4,5,5-tetradeuteroimidazolidin-2-one], the IC50 at 5-HT2 receptors was 1.1 nM; on dopamine D2 receptors, 8.3 nM.

`[2H]C1([2H])CN(CCN2CCC(c3cn(-c4ccc(F)cc4)c4ccc(Cl)cc34)CC2)C(=O)N1` [Compound 5, 1-[2-[4-[5-Chloro-1-(4-fluorophenyl)-1H-indol-3-yl]piperidin-1-yl]ethyl]-4,4-dideuteroimidazolidin-2-one]: the IC50 came to 0.69 nM on 5-HT2 receptors and 5.9 nM at dopamine D2 receptors.

Take `[2H]C1([2H])CNC(=O)N1CCN1CCC(c2cn(-c3ccc(F)cc3)c3ccc(Cl)cc23)CC1` [Compound 6, 1-[2-[4-[5-Chloro-1-(4-fluorophenyl)-1H-indol-3-yl]piperidin-1-yl]ethyl]-5,5-dideuteroimidazolidin-2-one]: the figures for the IC50 at 5-HT2 receptors and on dopamine D2 receptors were 0.98 nM and 7.6 nM, respectively.

As to `O=C1NCCN1CCN1CCC(c2cn(-c3ccc(F)cc3)c3ccc(Cl)cc23)CC1` [sertindole, 1-[2-[4-[5-chloro-1-(4-fluorophenyl)-1H-indol-3-yl]piperidin-1-yl]ethyl]-2-imidazolidinone, reference compound], the IC50 at 5-HT2 receptors is 0.39 nM.

For the origin of these results see patent US5703087A, “Phenyl indole compounds” (H. Lundbeck A/S, priority 1993, dated 1997).
